Reference: patent publication US20070293486A1, “Alpha-Keto Carbonyl Calpain Inhibitors” (SANTHERA PHARMACEUTICALS (SCHWEIZ) AG, priority 2004, published 2007)

Amino acid sequences for entries named in this document (tags omitted). Residues count along the entry.
UniProt G1T4Q9, 1-263: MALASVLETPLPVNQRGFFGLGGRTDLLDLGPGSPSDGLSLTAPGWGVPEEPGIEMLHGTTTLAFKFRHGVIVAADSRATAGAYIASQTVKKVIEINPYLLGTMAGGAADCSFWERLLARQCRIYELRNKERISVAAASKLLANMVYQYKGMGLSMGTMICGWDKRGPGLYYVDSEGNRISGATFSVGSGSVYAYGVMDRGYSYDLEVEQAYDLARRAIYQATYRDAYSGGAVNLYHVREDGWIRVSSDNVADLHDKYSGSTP

Legend:
[1] = tested on: cellular calpains in C2C12 myoblasts; assay: Calpain Inhibition Assay in C2C12 Myoblasts; conditions: read-out: Calp I IC50 Myoblast
20S Proteasome = 20S Proteasome (Oryctolagus cuniculus, UniProt G1T4Q9); assay: 20S Proteasome Assay; conditions: read-out: 20S Prot IC50, Rabbit

Compound: CC(C)[C@H](NC(=O)OCc1ccccc1)C(=O)N[C@H](C=O)Cc1ccccc1
- IC50 [1]: 40 µM
- IC50 (20S Proteasome): > 1 µM
